{"source": "patent US4599337A", "about": "“Antiphlogistic/antipyretic/analgesic agents containing theobromine or theophylline derivatives as active ingredient” (Eisai Co., Ltd., priority 1985, dated 1986)", "key": {"Acute toxicity in rats": {"test": "Acute toxicity in rats", "design": "species or system rat (SD male)", "settings": "rat, in vivo, po; Table 4, rats", "experimental": "(§1) The acute toxicity of the compounds of the invention was examined using ddy male mice and SD male rats, and the 50% lethal dose (LD50) was determined. Ten mice were used for each dose and morality was determined for 3 days after administration of each test compound of the invention. In the case of the rats, 5 rats were used for each dose and morality was determined 7 days after administrations."}, "Acute toxicity in mice": {"test": "Acute toxicity in mice", "design": "species or system mouse (ddy male)", "settings": "mouse, in vivo, po; Table 3, mice", "experimental": "as §1"}}}
{"compound": "Cn1cnc2c1c(=O)n(CCCN1CCN(c3ccc(Cl)c(Cl)c3)CC1)c(=O)n2C", "note": "[Compound A', 1-(3-(4-(3,4-dichlorophenyl)piperazinyl-(1))-n-propyl)theobromine]", "values": [{"measurement": "LD50 at 168 h", "setting": "Acute toxicity in rats", "value": "≥ 2000", "unit": "mg/kg"}, {"measurement": "LD50 at 72 h", "setting": "Acute toxicity in mice", "value": "> 800", "unit": "mg/kg"}]}
